Laboratory results as given in EP3939964B1, “COMBINATIONS FOR INHIBITING NHE-MEDIATED ANTIPORT IN THE TREATMENT OF DISORDERS ASSOCIATED WITH FLUID RETENTION OR SALT OVERLOAD AND GASTROINTESTINAL TRACT DISORDERS” (dated 2026).

How the values were obtained:
[1] = tested on: Normal female Sprague Dawley rats; assay: Pharmacodynamic model: effect of test compounds on fecal water content; details: one way ANOVA with Dunnett post tests, control vs treated
rats [2] = assay: Pharmacodynamic model: addition of a fluid absorbing polymer (1% Psyllium) to chow; details: with 1% Psyllium in diet; ability of test compound not impacted
female wistar rats = assay: Acute stress-induced visceral hypersensitivity (partial restraint stress, colorectal distension); details: oral 10 mg/kg, 1 h before CRD, at 45 and 60 mm Hg, p < 0.05, Figure 6
rats [3] = assay: Pharmacodynamic model: effect of test compounds on urinary sodium levels; details: increasing doses, corrected for sodium intake, Figures 3A and 3B
[4] = Determination of compound remaining in feces; details: oral 0.1 mg/kg, three rats
rats [5] = assay: Pharmacodynamic model: dose dependent effect of test compound on fecal water content; details: increasing doses, Figure 4
rat NHE-3 = assay: Cell-based assay of NHE-3 activity (pH sensitive dye method, BCECF); details: OK cells with rat NHE-3 gene; 0-30 uM test compound; 5 uM EIPA; average 3-6 replicates

Molecule | Significant? [1] | further results
CN1Cc2c(Cl)cc(Cl)cc2[C@H](c2cccc(S(=O)(=O)NCCOCCOCCOCCNC(=O)C(O)C(O)C(=O)NCCOCCOCCOCCNS(=O)(=O)c3cccc([C@@H]4CN(C)Cc5c(Cl)cc(Cl)cc54)c3)c2)C1 (single isomer, unassigned) | Y (Results are significant if p < 0.05) | fecal water content (rats [2]): increase fecal water content; urinary sodium (rats [2]): decrease urinary sodium; visceral hypersensitivity to distension (number of abdominal contractions) (female wistar rats): reduces visceral hypersensitivity to distension
CN1Cc2c(Cl)cc(Cl)cc2[C@H](c2cccc(S(=O)(=O)NCCOCCOCCOCCNC(=O)NCCCCNC(=O)NCCOCCOCCOCCNS(=O)(=O)c3cccc([C@@H]4CN(C)Cc5c(Cl)cc(Cl)cc54)c3)c2)C1 (single isomer, unassigned) | Y (Results are significant if p < 0.05) | amount of sodium excreted in the urine (rats [3]): diminishes significantly and dose dependently
CN1Cc2c(Cl)cc(Cl)cc2[C@H](c2cccc(S(=O)(=O)NCCOCCOCCNC(=O)NCCCCNC(=O)NCCOCCOCCNS(=O)(=O)c3cccc([C@@H]4CN(C)Cc5c(Cl)cc(Cl)cc54)c3)c2)C1.Cl.Cl (single isomer, unassigned) | Y (Results are significant if p < 0.05) | recovery in 72-hour fecal samples (summary in words) [4]: near quantitative recovery
N1,N4-bis(2-(2-(2-(2-(3-(6,8-dichloro-2-methyl-1,2,3,4-tetrahydroisoquinolin-4-yl)phenylsulfonamido)ethoxy)ethoxy)ethoxy)ethyl)-2,3-dihydroxysuccinamide |  | fecal water content (rats [5]): increased significantly and dose dependently
CN1Cc2c(Cl)cc(Cl)cc2C(c2cccc(S(=O)(=O)NCCOCCOCCNC(=O)c3ccc(C(=O)NCCOCCOCCNS(=O)(=O)c4cccc(C5CN(C)Cc6c(Cl)cc(Cl)cc65)c4)cc3)c2)C1 (centres unmarked) | Y (Results are significant if p < 0.05) | 
CN1Cc2c(Cl)cc(Cl)cc2C(c2cccc(S(=O)(=O)NCCOCCOCCNC(=O)NCCCCNC(=O)NCCOCCOCCNS(=O)(=O)c3cccc(C4CN(C)Cc5c(Cl)cc(Cl)cc54)c3)c2)C1 (centres unmarked) | Y (Results are significant if p < 0.05) | 
N1,N4-bis(2-(2-(2-(2-(4-(6,8-dichloro-2-methyl-1,2,3,4-tetrahydroisoquinolin-4-yl)phenylsulfonamido)ethoxy)ethoxy)ethoxy)ethyl)-2,3-dihydroxysuccinamide |  | rat NHE-3 Average pIC50 (rat NHE-3): >7
CN1Cc2c(Cl)cc(Cl)cc2C(c2ccc(S(=O)(=O)NCCOCCOCCNC(=O)NCCCCNC(=O)NCCOCCOCCNS(=O)(=O)c3ccc(C4CN(C)Cc5c(Cl)cc(Cl)cc54)cc3)cc2)C1 (centres unmarked) | Y (Results are significant if p < 0.05) | 
CN1Cc2c(Cl)cc(Cl)cc2[C@H](c2ccc(S(=O)(=O)NCCOCCOCCOCCNC(=O)NCCOCCOCCOCCNS(=O)(=O)c3ccc([C@@H]4CN(C)Cc5c(Cl)cc(Cl)cc54)cc3)cc2)C1 (single isomer, unassigned) | Y (Results are significant if p < 0.05) | 
